Test system: cells
Assay: Resistance of cells to exposure to a variety of agents
Conditions: UV, chemical carcinogens, chemical warfare agents, radioactive iodine and cigarette smoke

Compound: COc1ccc2cc(-c3nc4ccc(C)cn4c3NCc3ccco3)c(=O)[nH]c2c1 [YEL002]
- resistance of cells to exposure to agents: more resistant
